DSG3 Ab inh: inhibitors of pemphigus antibody binding to DSG3, primary screen, biochemical, bead-based, flow cytometry, scFv-GFP | Desmoglein-3 (Homo sapiens), P32926 | DSG3-coupled beads, scFv-anti-DSG3-GFP binding; stronger effect = lower value | binding (percent of control), % at 10 µM | 0.48% of 310,000 active;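 active = binding more than 3 SD below its plate's average and above zero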;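 note: hits lower antibody fragment binding to DSG3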
eIF4H FP inh: human eIF4H binding inhibitors, primary screen, translation initiation inhibitor project, biochemical, uHTS, fluorescence polarization. Eukaryotic translation initiation factor 4H (Homo sapiens), Q15056. eIF4H fluorescence polarization binding assay. inhibition, % at 35 µM. 0.94% of 290,000 active. AID 2012, 2009;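 note: calls also rest on retests at 20 µM and on dose response follow-up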
UUG fidelity: alters start codon recognition fidelity in yeast. S. cerevisiae UUG-firefly luciferase reporter, luminescence/redox ratio. activity score, % at 18.7 µM. 0.13% of 350,000 active. AID 602363;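 active = replicate mean at a twofold rise or more, about +100% in these data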;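 also: firefly luciferase made from a UUG start codon reports start codon fidelity; reporter light over untreated wells divided by growth signal over untreated wells; some hits fall short of that in this replicate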
PABP1 MLLE inh: inhibitors of PABP1 MLLE–PAM2 peptide binding, primary screen, biochemical, fluorescence polarization, FITC-PAM2, GST-MLLE; Polyadenylate-binding protein 1 (Homo sapiens), P11940; inhibition, % at 20 µM; 0.36% of 360,000 active; AID 588489, 2011; in the data active = inhibition above about 35%, passing the limit was not always enough;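 note: plate controls were DMSO wells with GST-MLLE for no effect and wells lacking GST-MLLE protein for full effect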
PABP FP inh: PABP poly(A) RNA binding inhibitors, primary screen, biochemical, fluorescence polarization, uHTS; Polyadenylate-binding protein 1 (Homo sapiens), P11940; calls only at 35 µM; 1% of 290,000 active;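 note: calls also rest on retests at 20 µM and on dose response follow-up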
* hit, by the source's call. Hits are enriched below; roughly 1.5% of the tested compounds scored in any of these assays. Unless noted, the rule behind the calls is not given here.

Amino acid sequences for entries named in this document (tags omitted).
Polyadenylate-binding protein 1 (Homo sapiens), P11940, UniProt P11940, whole entry, looked up: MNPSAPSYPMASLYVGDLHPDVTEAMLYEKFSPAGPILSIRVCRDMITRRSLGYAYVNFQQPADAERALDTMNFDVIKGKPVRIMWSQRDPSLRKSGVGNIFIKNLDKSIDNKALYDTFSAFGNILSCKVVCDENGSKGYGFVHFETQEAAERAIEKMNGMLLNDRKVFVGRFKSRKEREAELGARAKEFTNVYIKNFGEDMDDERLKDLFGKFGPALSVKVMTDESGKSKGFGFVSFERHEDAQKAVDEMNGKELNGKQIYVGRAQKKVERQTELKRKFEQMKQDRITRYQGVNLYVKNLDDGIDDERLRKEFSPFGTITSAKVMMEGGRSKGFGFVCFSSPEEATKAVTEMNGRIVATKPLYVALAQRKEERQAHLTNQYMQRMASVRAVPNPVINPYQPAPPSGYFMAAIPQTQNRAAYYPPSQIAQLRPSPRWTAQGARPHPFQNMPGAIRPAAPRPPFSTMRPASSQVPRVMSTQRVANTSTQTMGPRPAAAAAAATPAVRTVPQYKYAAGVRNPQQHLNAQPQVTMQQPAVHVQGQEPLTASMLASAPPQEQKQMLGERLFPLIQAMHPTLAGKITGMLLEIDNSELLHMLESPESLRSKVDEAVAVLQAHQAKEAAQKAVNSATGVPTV

`COc1ccc(NC(=O)N(C)C[C@@H]2OCCCC[C@@H](C)Oc3ccc(NC(=O)Nc4cccc5ccccc45)cc3C(=O)N([C@H](C)CO)C[C@@H]2C)cc1` gave UUG fidelity 6.
Screening CN1C(=O)c2cc(NC(=O)C3CCCC3)ccc2OC[C@H]2O[C@@H](CC(=O)NCC3CC3)CC[C@@H]21 returned UUG fidelity 9.
For O=C(/C=C/c1ccco1)NC(=S)Nc1ccc(N2CCCC2)cc1 the results were DSG3 Ab inh 128, eIF4H FP inh 93*, PABP1 MLLE inh 36* and PABP FP inh active.
C[C@H](CO)N1C[C@H](C)[C@H](CN(C)S(=O)(=O)c2ccc(F)cc2)OCCCC[C@H](C)Oc2ccc(NC(=O)C3CCCCC3)cc2C1=O was read as UUG fidelity 8.
For C[C@H](CO)N1C[C@H](C)[C@H](CN(C)Cc2ccc(Oc3ccccc3)cc2)Oc2ccc(NC(=O)NC3CCCCC3)cc2CC1=O the results were UUG fidelity -4.
Screening CCn1c(SCC(=O)N/N=C/C=C\c2ccco2)nc2ccccc21 returned DSG3 Ab inh 90, UUG fidelity -12 and PABP1 MLLE inh -16.
Screening Cn1c(=O)c2c(ncn2CC(=O)N/N=C/C=C/c2ccco2)n(C)c1=O returned DSG3 Ab inh 107, eIF4H FP inh 99*, PABP1 MLLE inh -1 and PABP FP inh active.
For CC(/C=N/NC(=O)Cn1cnc2c1c(=O)n(C)c(=O)n2C)=C\c1ccco1 the results were DSG3 Ab inh 104, eIF4H FP inh 10, UUG fidelity 7, PABP1 MLLE inh -2 and PABP FP inh inactive.
`Cn1c(SCC(=O)N/N=C/C=C\c2ccco2)nc2ccccc21` gave DSG3 Ab inh 99, eIF4H FP inh 90*, UUG fidelity -16, PABP1 MLLE inh -14 and PABP FP inh active.
`CCOC(=O)Cc1cc(=O)n(-c2nc3ccccc3s2)[nH]1` gave DSG3 Ab inh 112, eIF4H FP inh 70*, UUG fidelity -31, PABP1 MLLE inh -12 and PABP FP inh active.

Filtered by structure: the compounds so far with an aryl thioether with sulfur outside any ring
Screening CCn1c(SCC(=O)N/N=C/C=C\c2ccco2)nc2ccccc21 returned DSG3 Ab inh 90, UUG fidelity -12 and PABP1 MLLE inh -16.
`Cn1c(SCC(=O)N/N=C/C=C\c2ccco2)nc2ccccc21` gave DSG3 Ab inh 99, eIF4H FP inh 90*, UUG fidelity -16, PABP1 MLLE inh -14 and PABP FP inh active.

Pulled by compound from above:
Screening CCn1c(SCC(=O)N/N=C/C=C\c2ccco2)nc2ccccc21 returned DSG3 Ab inh 90, UUG fidelity -12 and PABP1 MLLE inh -16.
For CC(/C=N/NC(=O)Cn1cnc2c1c(=O)n(C)c(=O)n2C)=C\c1ccco1 the results were DSG3 Ab inh 104, eIF4H FP inh 10, UUG fidelity 7, PABP1 MLLE inh -2 and PABP FP inh inactive.

Continuation:
CC(C)NC(=O)Nc1ccc2c(c1)C(=O)N([C@@H](C)CO)C[C@H](C)[C@H](CN(C)S(=O)(=O)c1ccc(F)cc1)OCCCC[C@H](C)O2 was read as UUG fidelity 11.
Screening CCOC(=O)c1c(NC(=O)C2C3C=CC(C3)C2C(=O)O)sc2c1CCCC2 (configuration not stated) returned DSG3 Ab inh 37*, eIF4H FP inh -8, PABP1 MLLE inh 0 and PABP FP inh inactive.
CCOC(=O)c1c(NC(=O)C2C3C=CC(C3)C2C(=O)O)sc2c1CCC(C)C2 (configuration not stated) was read as DSG3 Ab inh 98, eIF4H FP inh 1, UUG fidelity -23, PABP1 MLLE inh 9 and PABP FP inh inactive.
COc1ccc(/C=N/NC(=O)c2cccc([N+](=O)[O-])c2)c2ccccc12 was read as DSG3 Ab inh 96, eIF4H FP inh -2, UUG fidelity 23, PABP1 MLLE inh -8 and PABP FP inh inactive.
For Cc1[nH]c2ccccc2c1/C=N/NC(=O)c1cccc([N+](=O)[O-])c1 the results were DSG3 Ab inh 60*, eIF4H FP inh 15, PABP1 MLLE inh 15 and PABP FP inh inactive.
`Cn1cc(/C=N/NC(=O)c2cccc([N+](=O)[O-])c2)c2ccccc21` gave DSG3 Ab inh 25*, eIF4H FP inh 2, UUG fidelity -19, PABP1 MLLE inh -5 and PABP FP inh inactive.
`C[C@H](CO)N1C[C@H](C)[C@H](CN(C)Cc2ccc3c(c2)OCO3)Oc2ccc(NC(=O)Nc3ccc(C(F)(F)F)cc3)cc2C1=O` gave UUG fidelity -8.
Screening O=C(Nc1ccccc1OC(F)F)c1cc2c(s1)CCC2 returned DSG3 Ab inh 91, eIF4H FP inh 84*, UUG fidelity 0, PABP1 MLLE inh 1 and PABP FP inh inactive.
`C[C@H](CO)N1C[C@H](C)[C@H](CN(C)Cc2ccncc2)Oc2ncc(C#CCC3CCCC3)cc2C1=O` gave UUG fidelity 4.
`CC(C)C[C@H](NC(=O)c1nc[nH]c1C(=O)NCCCCCNC(=O)OC(C)(C)C)C(=O)OCc1ccccc1` gave DSG3 Ab inh 100, eIF4H FP inh 21, UUG fidelity -8, PABP1 MLLE inh -1 and PABP FP inh inactive.
CC(C)(C)OC(=O)NCCCCCNC(=O)c1[nH]cnc1C(=O)N[C@@H](Cc1ccccc1)C(=O)OCc1ccccc1 was read as DSG3 Ab inh 102, eIF4H FP inh 109*, UUG fidelity -10, PABP1 MLLE inh -5 and PABP FP inh active.
CS(=O)(=O)c1ccc(C(=O)Nc2ccc(N3CCCCC3)cc2)c(Cl)c1 was read as DSG3 Ab inh 86, eIF4H FP inh -6, PABP1 MLLE inh 6 and PABP FP inh inactive.
For Cc1ccc(Sc2ccc(NC(=O)c3ccc(S(C)(=O)=O)cc3Cl)cc2)cc1 the results were DSG3 Ab inh -16*, eIF4H FP inh -6, UUG fidelity -32, PABP1 MLLE inh -8 and PABP FP inh inactive.
Cc1ccc(NC(=S)C2=C(O)c3sccc3N(C)S2(=O)=O)cc1 was read as DSG3 Ab inh 105, eIF4H FP inh -4, UUG fidelity -38, PABP1 MLLE inh 41* and PABP FP inh inactive.
For CC(/C=C1\SC(=S)N(CC(=O)O)C1=O)=C\c1ccccc1 the results were DSG3 Ab inh 104, eIF4H FP inh 1, PABP1 MLLE inh 11 and PABP FP inh inactive.
`O=C(CCN1C(=O)/C(=C\C=C\c2ccccc2)SC1=S)Nc1ccc(C(=O)O)cc1` gave DSG3 Ab inh 103, eIF4H FP inh 68*, UUG fidelity 2, PABP1 MLLE inh -10 and PABP FP inh active.
CC(=C\c1ccco1)/C=C1/SC(=S)N(CC(=O)O)C1=O was read as DSG3 Ab inh 96, eIF4H FP inh 87*, PABP1 MLLE inh 3 and PABP FP inh active.
Screening O=C(CCCN1C(=O)/C(=C/c2ccco2)SC1=S)Nc1cccc(C(=O)O)c1 returned DSG3 Ab inh 99, eIF4H FP inh 94*, PABP1 MLLE inh -2 and PABP FP inh active.
`O=C(CCCN1C(=O)/C(=C\c2cccs2)SC1=S)Nc1cccc(C(=O)O)c1` gave DSG3 Ab inh 98, eIF4H FP inh 7, PABP1 MLLE inh 4 and PABP FP inh inactive.
Screening O=C(CN1C(=O)/C(=C/c2ccco2)SC1=S)Nc1ccc(C(=O)O)c(O)c1 returned DSG3 Ab inh 95, eIF4H FP inh 92*, UUG fidelity -13, PABP1 MLLE inh -41 and PABP FP inh active.

From PubChem BioAssay
